In patent US20040073295:

Molecular target: human protein C (UniProt P04070)

human thrombin-rabbit TM complex was tested, and the Kcat (min^-1) of protein C activation; AcPC 0 %, POPC 100 % was 29 min⁻¹, the Kcat (min^-1) of protein C activation; AcPC 50 %, POPC 50 %, monomer (M) was 28 min⁻¹ and the Kcat (min^-1) of protein C activation; AcPC 50 %, POPC 50 %, polymer (P) was 18 min⁻¹. It also gave a Kcat (min^-1) of protein C activation; AcPC 80 %, POPC 20 %, monomer (M) of 27 min⁻¹, a Kcat (min^-1) of protein C activation; AcPC 80 %, POPC 20 %, polymer (P) of 18 min⁻¹ and a Kcat (min^-1) of protein C activation; AcPC 100 %, POPC 0 %, monomer (M) of 30 min⁻¹. The Kcat (min^-1) of protein C activation; AcPC 100 %, POPC 0 %, polymer (P) was 24 min⁻¹, the Kcat (min^-1) of protein C activation; no lipid (AcPC % -, POPC % -) was 39 min⁻¹ and the Km (µM) of protein C activation; AcPC 0 %, POPC 100 % was 1.3 µM. The Km (µM) of protein C activation; AcPC 50 %, POPC 50 %, monomer (M) was 1 µM, the Km (µM) of protein C activation; AcPC 50 %, POPC 50 %, polymer (P) was 2.1 µM and the Km (µM) of protein C activation; AcPC 80 %, POPC 20 %, monomer (M) was 1.4 µM. It also gave a Km (µM) of protein C activation; AcPC 80 %, POPC 20 %, polymer (P) of 3 µM, a Km (µM) of protein C activation; AcPC 100 %, POPC 0 %, monomer (M) of 1.1 µM and a Km (µM) of protein C activation; AcPC 100 %, POPC 0 %, polymer (P) of 3 µM. It also gave a Km (µM) of protein C activation; no lipid (AcPC % -, POPC % -) of 4.2 µM, a Km (µM); Free TM of 3.6 µM and a Km (µM); TM in AcPC vesicles of 0.86 µM. The Km (µM); TM in POPC vesicles was 0.66 µM, the Km (µM); TM in polymerized AcPC vesicles was 4.5 µM and the kcat (min^-1); Free TM was 7 min⁻¹. It also gave a kcat (min^-1); TM in AcPC vesicles of 2.6 min⁻¹, a kcat (min^-1); TM in POPC vesicles of 4.6 min⁻¹ and a kcat (min^-1); TM in polymerized AcPC vesicles of 5.7 min⁻¹. It also gave a kcat/Km (min^-1· µM^-1); Free TM (min^-1· µM^-1) of 1.94, a kcat/Km (min^-1· µM^-1); TM in AcPC vesicles (min^-1· µM^-1) of 3.02 and a kcat/Km (min^-1· µM^-1); TM in POPC vesicles (min^-1· µM^-1) of 6.97. It also gave a kcat/Km (min^-1· µM^-1); TM in polymerized AcPC vesicles (min^-1· µM^-1) of 1.27.
